This note sets out measurements from paper PMC7144380 (Molecules, 2020).

The target of the assay is κ-opioid receptor (KOR), guinea pig (Cavia porcellus, UniProt P41144). The experiment in a line: [3H]U-69593 competition, guinea pig brain membranes. The note with it: read-out: Ki ± S.E.M. (nM) / [^3H]U-69593 (κ) ^2; 50 mM Tris-HCl pH 7.4, 30 °C, 30 min; homologous competition.

On to `CN(C(=O)Cc1ccccc1)[C@H]1CC[C@@]2(CCCO2)C[C@@H]1N1CCCC1`, for which the Ki turned out to be 5.51 nM.
